Results taken from PubChem BioAssay AID493131 (Broad Institute, 2011).
This is a selection; strong and weak results do not stand in their true shares. Activity calls are given as the source filed them.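 How the source made its calls: active means mean activation above about 17%, with every replicate also reaching it (limit read from the data, passing the limit was not always enough); inconclusive means only one of the two conditions met; inactive means the rest.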

By UniProt entry, the sequences of proteins in these tests, tags left out. Where a name states a change or a piece, a line headed by the entry shows the natural chain unless it says otherwise.
UniProt P13346: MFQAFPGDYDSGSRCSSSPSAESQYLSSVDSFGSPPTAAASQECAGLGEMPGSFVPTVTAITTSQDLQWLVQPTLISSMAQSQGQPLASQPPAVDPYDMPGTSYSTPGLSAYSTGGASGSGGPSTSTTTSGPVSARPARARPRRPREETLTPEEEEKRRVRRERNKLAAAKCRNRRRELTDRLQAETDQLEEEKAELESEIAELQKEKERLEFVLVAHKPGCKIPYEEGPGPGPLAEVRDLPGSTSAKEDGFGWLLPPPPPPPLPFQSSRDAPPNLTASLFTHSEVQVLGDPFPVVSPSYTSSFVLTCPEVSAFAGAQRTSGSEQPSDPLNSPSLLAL

Molecular target: Protein FosB (Mus musculus) (UniProt P13346)
Assay: enhancers of mouse delta FosB DNA binding – biochemical, fluorescence polarization, TAMRA-CDK5 oligo, single point, primary screen (AID 493131);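 further: fluorescence polarization rise as delta FosB binds a TAMRA Cdk5 AP-1 oligo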
Details: purified delta FosB, at 25 µM, active compounds read high, percent of positive-control signal above neutral wells

Row | SMILES | activation
1 | O=C(OC1CN2CCC1CC2)c1cccc([N+](=O)[O-])c1 (stereo not given) | inactive: 0.201%
2 | CCOC(=O)c1ccc(NC(=O)C(C)(CCl)SC)cc1 (stereo not given) | inactive: 0.168%
3 | CCC(C)N(CC(C)C)C(=S)SC(NC(C)=O)C(Cl)(Cl)Cl (stereo not given) | inactive: -0.823%
4 | COP1(=S)c2c(C)nn(CCC#N)c2N=C(c2ccc(F)cc2)N1C (stereo not given) | inactive: -7.15%
5 | O=C(Nc1ccncc1[N+](=O)[O-])c1ccc([N+](=O)[O-])cc1[N+](=O)[O-] | inactive: 7.78%
6 | O=C(COc1ccccc1)OC1CN2CCC1CC2 (stereo not given) | inactive: 2.19%
7 | CCOC(=O)Nc1cccc([As](=O)(O)O)c1 | inactive: -2.56%
8 | O=P(Nc1ccccn1)(c1cccc2ccccc12)c1cccc2ccccc12 | inactive: -1.18%
9 | Cc1cc(SC(NC=O)C(Cl)(Cl)Cl)ncn1 (stereo not given) | inactive: -9.44%
10 | O=[N+]([O-])c1ccc(Nc2ccc(Oc3ccc([N+](=O)[O-])cc3[N+](=O)[O-])cc2)c([N+](=O)[O-])c1 | inactive: -3.82%
11 | CCOC(=O)Nc1ccc([As](=O)(O)O)c(O)c1 | inactive: -4.7%
12 | CC1CCNP(=O)(N(CCCl)CCCl)O1 (stereo not given) | inactive: -4.92%
13 | Cc1cc(SC(NC(=O)c2ccccc2)C(Cl)(Cl)Cl)nc(C(C)C)n1 (stereo not given) | inactive: -2.89%
14 | CCCCOc1ccc(C(=O)NCC2(N3CCCCC3)CCCCC2)cc1OC | inactive: -1.38%
15 | ClCCSc1nnc(-c2cccnc2)o1 | inactive: -4.11%
16 | CC(C)c1ccc(OP(=O)(Nc2ccccn2)Oc2ccccc2F)cc1 (stereo not given) | inactive: -10.4%
17 | COC(=O)C1(C)COP(=O)(N2CCCCCC2)OC1 (stereo not given) | inactive: -6.09%
18 | O=[N+]([O-])c1cc([N+](=O)[O-])c(-c2ccn[nH]2)s1 | inactive: -8.03%
19 | O=C(OC1CN2CCC1CC2)c1cccc2[nH]cnc12 (stereo not given) | inactive: 6.42%
20 | CCN(CC)C(=S)SC(NC=O)C(Cl)(Cl)Cl (stereo not given) | inactive: 0.536%
21 | CC(C)NC(=O)NP(=O)(Oc1ccccc1)Oc1ccccc1 | inactive: -2.76%
22 | COc1cc(C(=O)NCC2(N3CCOCC3)CCCCC2)ccc1OCC(C)C | inactive: -12%
23 | O=[N+]([O-])c1ccc(-c2cc([N+](=O)[O-])c(O)c([N+](=O)[O-])c2)cc1 | inactive: -3.09%
24 | C[As](=O)(O)c1cccc(C(=O)O)c1 | inactive: 4.24%
25 | O=[As](O)(c1ccc(O)cc1)c1ccccc1O | inactive: -7.85%

Row | SMILES | activation
26 | Cc1ccc(OP(=O)(Nc2ccc([N+](=O)[O-])cn2)Oc2ccc(C)cc2)cc1 | inactive: -15.4%
27 | Cc1ccc2nc3c(c(C)c2c1)CC(C(Cl)Cl)S3 (stereo not given) | inactive: -12.6%
28 | O=[N+]([O-])c1cc(Oc2ccc([N+](=O)[O-])cc2C(F)(F)F)cc([N+](=O)[O-])c1 | inactive: 6.07%
29 | COc1ccc(N/C(=N/P(=O)(N2CCOCC2)N2CCOCC2)N2CCOCC2)cc1 | inactive: 4.82%
30 | Cc1c2c(nc3ccccc13)SC(C(Cl)Cl)C2 (stereo not given) | inactive: -12.3%
31 | Cc1cc(=O)[nH]c(N[N+](=O)[O-])n1 | inactive: -5.55%
32 | O=C(OC1CN2CCC1CC2)C12CC3CC(CC(C3)C1)C2 (stereo not given) | inactive: -2.65%
33 | O=P1(N(CCCl)CCCl)OCCCN1CCCl (stereo not given) | inactive: 6.93%
34 | O=P1(N(CCCl)CCCl)Nc2ccccc2N1 | inactive: -1.13%
35 | COc1cc(I)ccc1[As](=O)(O)O | inactive: -4.63%
36 | COc1ccc2nc(NP(=O)(c3ccccc3)c3ccccc3)sc2c1 | inactive: -11%
37 | Nc1cccc2c([As](=O)(O)O)cccc12 | inactive: -30.7%
38 | Cc1ccc(NCCc2c([N+](=O)[O-])cc([N+](=O)[O-])cc2[N+](=O)[O-])cc1 | inactive: -3.17%
39 | CCCOP(=S)(Nc1nc(N)cc(=O)[nH]1)OCCC | inactive: -3.34%
40 | CCOP(=O)(Nc1cccc2ccccc12)OCC | inactive: 1.17%
41 | COc1cc(C2NCCC3(OCCO3)C2(C)C)cc(OC)c1OC (stereo not given) | inactive: -7.52%
42 | O=C(OC1CN2CCC1CC2)c1ccc(Cl)cc1 (stereo not given) | inactive: 2.52%
43 | CS(=O)(=O)c1ccc(Cl)c(NC(=O)COC(=O)C(O)(c2ccccc2)c2ccccc2)c1 | inactive: -6.16%
44 | COc1cc(C(=O)NCC2(N3CCOCC3)CCCCC2)cc(Cl)c1OC(C)C | inactive: -10.5%
45 | O=[As](O)(O)c1cccnc1 | inactive: -1.79%
46 | O=[As](O)(c1cccc(O)c1)c1cccc(O)c1 | inactive: -5.37%
47 | Cc1cccc(OCC(=O)OC2CN3CCC2CC3)c1 (stereo not given) | inactive: 2.6%
48 | NC(=O)Nc1ccc([As](=O)(O)O)cc1 | inactive: -3.02%
49 | CCOP1(=S)c2c(C)nn(CCC#N)c2N=C(c2ccc(F)cc2)N1C (stereo not given) | inactive: 0.517%
50 | CN(C(=O)Cc1ccccc1)[C@@H]1CC[C@]2(CCCO2)C[C@H]1N1CCCC1 | inactive: -5.98%

Row | SMILES | activation
51 | N#CCCN(C(=O)COC(=O)C(O)(c1ccccc1)c1ccccc1)c1ccc(F)cc1 | inactive: -1.12%
52 | CN(C(=O)Cc1ccc(Cl)c(Cl)c1)[C@H]1CC[C@@]2(CCCO2)C[C@@H]1N1CCCC1 | inactive: -1.89%
53 | CN(C)C(=O)c1cc([N+](=O)[O-])cc2c1-c1c(cc([N+](=O)[O-])cc1[N+](=O)[O-])C2=O | inactive: -1.3%
54 | O=[N+]([O-])c1ccc2c(c1)nnn2O | inactive: -1.05%
55 | O=P(Nc1nccs1)(c1ccccc1)c1nc2ccccc2s1 (stereo not given) | inactive: -4.69%
56 | O=P(Nc1nccs1)(Oc1ccccc1)Oc1ccccc1 | inactive: 3.01%
57 | CCOP1(=S)c2c(C)nn(CCC#N)c2N=C(c2ccccc2F)N1C (stereo not given) | inactive: -9.79%
58 | CS(=O)(=O)c1cc([N+](=O)[O-])c2no[n+]([O-])c2c1 | inactive: -5.53%
59 | Nc1ccccc1[As](=O)(O)c1ccccc1 | inactive: -1.35%
60 | O=C(O)COc1ccc([As](=O)(O)O)cc1[N+](=O)[O-] | inactive: 0.865%
61 | O=P1(Nc2ncccn2)COc2ccccc2OC1 | inactive: -5.39%
62 | Nc1cccc([As](=O)(O)c2ccccc2)c1 | inactive: 1.74%
63 | O=P1(Nc2ccc(Br)cn2)COc2ccccc2OC1 | inactive: 3.69%
64 | NS(=O)(=O)c1cccc(NC(=O)COC(=O)C(O)(c2ccccc2)c2ccccc2)c1 | inactive: -6.93%
65 | O=[As](O)(c1cccs1)c1cccs1 | inactive: 4.54%
66 | Cc1ccc(OCC(=O)OC2CN3CCC2CC3)cc1 (stereo not given) | inactive: 2.91%
67 | CC1CCC(C(C)C)C(OP(=O)(Nc2ccccn2)c2ccccc2)C1 (stereo not given) | inactive: -10.9%
68 | Cc1ccc(C(=O)OC2CN3CCC2CC3)cc1 (stereo not given) | inactive: 2.12%
69 | Cc1nn(-c2ccccc2)c2c1P(=O)(N1CCOCC1)N(C)C(c1ccccc1)=N2 (stereo not given) | inactive: -3.42%
70 | CN(C)C1(CNC(=O)c2ccc(S(C)(=O)=O)cc2)CCCCC1 | inactive: -0.716%
71 | CCCC1OP(=O)(Nc2ccccc2)OCC1CC (stereo not given) | inactive: -0.914%
72 | O=C(/C=C/c1ccccc1)OC1CN2CCC1CC2 (stereo not given) | inactive: 4.46%
73 | COc1ccccc1CNC(=O)COC(=O)C(O)(c1ccccc1)c1ccccc1 | inactive: 4.84%
74 | CC(C)/C=N\N=C(\N)N[N+](=O)[O-] | inactive: -3.19%
75 | CC1(CBr)Cn2c(nc3ccccc3c2=O)S1 (stereo not given) | inactive: 1.02%

Row | SMILES | activation
76 | CCOP(=O)(NC(=NC(C)c1ccccc1)NC(C)c1ccccc1)OCC (stereo not given) | inactive: -16%
77 | O=P1(Nc2ccccn2)COc2ccccc2OC1 | inactive: -0.852%
78 | CCC1=CC2Cc3nc4ccc(Cl)cc4c(N)c3C(C1)C2 (stereo not given) | active: 21.1%
79 | CCOP(=O)(Nc1ccc(C)cn1)OCC | inactive: 2%
80 | CC(C)(C)C(=O)NC(Sc1ncccn1)C(Cl)(Cl)Cl (stereo not given) | inactive: -5.3%
81 | Clc1n[nH]nc1-c1nn[nH][15n]1 | inactive: -0.458%
82 | CC(C)C(=O)NC(Sc1ccccc1)C(Cl)(Cl)Cl (stereo not given) | inactive: -1.15%
83 | O=P(Nc1nccs1)(c1ccccc1)c1ccccc1 | inactive: -0.631%
84 | c1nnnn1CCn1cnnn1 | inactive: -0.0765%
85 | O=[As](O)(c1ccccc1)c1ccc(O)cc1 | inactive: -7.34%
86 | O=[N+]([O-])c1ccc(O)c(/C=N/Nc2ccc([N+](=O)[O-])cc2[N+](=O)[O-])c1 | inactive: -3.91%
87 | O=[N+]([O-])c1ncn(CCn2cnc([N+](=O)[O-])n2)n1 | inactive: -5.08%
88 | CC(=O)NC(SC(=S)N(C)C)C(Cl)(Cl)Cl (stereo not given) | inactive: -0.189%
89 | O=C(OC1CN2CCC1CC2)c1cccc(Cl)c1 (stereo not given) | inactive: -7.42%
90 | Nc1ccc([As](=O)(O)c2ccc([N+](=O)[O-])cc2)cc1 | inactive: -6.48%
91 | C(Cc1nn[nH]n1)Cc1nn[nH]n1 | inactive: 7.93%
92 | O=P(Nc1ccccn1)(c1ccc(Br)cc1)c1ccc(Br)cc1 | inactive: -7.42%
93 | CN(C)C1(CNC(=O)c2ccc(Cl)c(S(N)(=O)=O)c2)CCCCC1 | inactive: 4.17%
94 | COc1ccc(N)c([N+](=O)[O-])c1[N+](=O)[O-] | inactive: -5.06%
95 | C[C@H]1OP(=O)(Oc2ccccc2)[C@H](O)[C@H](O)[C@H]1N=[N+]=[N-] (stereo not given in full) | inactive: 2.11%
96 | O=P(Nc1nc2ccccc2s1)(c1ccccc1)c1ccccc1 | inactive: -7.33%
97 | CCC(=O)N1C2C3N(C(=O)CC)C1C1N(C(=O)CC)C(C(N1C(=O)CC)N3C(=O)CC)N2C(=O)CC | inactive: -0.682%
98 | O=C(OC1CN2CCC1CC2)c1ccccc1 (stereo not given) | inactive: 4.5%
99 | Cc1ccc(OP(=O)(Nc2ccccn2)Oc2ccc(C)cc2)cc1 | inactive: 0.939%
100 | CC(=O)NC(SC(=S)N(CC(C)C)CC(C)C)C(Cl)(Cl)Cl (stereo not given) | inactive: 0.758%
